Experiment: Immunogenicity, serum IgG ELISA after repeat administration
Details: repeat administration 20 μg/mouse, even at 1:10 dilutions of serum

SMILES: CC[C@H](C)[C@H](NC(=O)[C@@H](NC(=O)[C@H](Cc1ccccc1)NC(=O)[C@H](Cc1ccccc1)NC(=O)[C@@H](NC(=O)[C@H](CC(C)C)NC(=O)[C@@H](N)Cc1c[nH]c2ccccc12)C(C)C)C(C)C)C(=O)N[C@@H](C)C(=O)N[C@@H](Cc1ccc(O)cc1)C(=O)N[C@@H](Cc1ccccc1)C(=O)N[C@@H](C)C(=O)N[C@@H](CCCNC(=N)N)C(=O)O
- immunogenicity (serum IgG by ELISA): neither FP2 nor FP4 peptides were immunogenic

Reference: patent publication US20130205416A1, “ANTI-VIRAL AGENT” (priority 2010, published 2013)
